{
  "source": "patent US8551717B2",
  "about": "“Method for determining sumoylation” (Medizinische Hochschule Hannover, priority 2008, dated 2013)",
  "system": "STAT1",
  "experiment": "Interplay of STAT1 Y701 phosphorylation and K703 SUMOylation by USDDS, western blot",
  "format": "cell-based, human",
  "settings": "HEK293 transfectants; interferon-β stimulation ½ h or 1 h; α-pY701 STAT1 blot",
  "excerpt": "To identify new SUMOylation substrates and to study the function of SUMOylation the Ubc9/substrate dimerisation-dependent SUMOylation system (USDDS) was developed which consists of fusions of the SUMOylation substrate and of the SUMO-conjugating enzyme Ubc9 to the chemically activatable heterodimerisation domains FKBP and FRB, respectively, as shown in FIG. 2. When the substrate protein fused to FKBP is coexpressed with Ubc9-FRB, treatment of HEK293 cells with the rapamycin-related dimerizer AP21967 induces SUMOylation of the substrate protein fused to FKBP at its specific SUMOylation site. […] Dependent on an EcoRl site in the coding sequence, seven C-terminal amino acids of the human STAT1a in the STAT1-FKBP/FRB fusion proteins are missing. […]\nThe USDDS was used to study the interplay of Y701 phosphorylation and the K703 SUMOylation in vivo (FIG. 5). […] The proteins of the transfectants were immunoblotted with a phospho (p)Y701 STAT1 antibody (α-pY701 STAT1), stripped and re-probed with a STAT1 antibody (α-STAT1) to detect also non-phosphorylated and SUMOylated STAT1.The proteins of the transfectants then were analyzed by a pY701-STAT1 specific antibody, that recognizes the tyrosine 701 phosphorylation also in SUMOylated STAT1 (FIG. 5). […] However, pY701 could never be detected in the gel region where SUMOylated STAT1-FRB migrates. […]",
  "data": [
    {"molecule": "interferon-β: interferon-β used to induce STAT1 phosphorylation (protein, UniProt P01574 22-187, looked up) Interferon beta: MSYNLLGFLQRSSNFQCQKLLWQLNGRLEYCLKDRMNFDIPEEIKQLQQFQKEDAALTIYEMLQNIFAIFRQDSSSTGWNETIVENLLANVYHQINHLKTVLEEKLEKEDFTRGKLMSSLHLKRYYGRILHYLKAKEYSHCAWTIVRVEILRNFYFINRLTGYLRN", "values": [
      {"measurement": "Y701 phosphorylation of endogenous STAT1", "result": "induced Y701 phosphorylation"},
      {"measurement": "Y701 phosphorylation of the STAT1-FRB fusion protein", "result": "induced Y701 phosphorylation"}
    ]}
  ]
}
